Target: Sodium-dependent serotonin transporter (Homo sapiens, UniProt P31645)

Amino acid sequences for entries named in this document (tags omitted).
UniProt P31645, whole entry: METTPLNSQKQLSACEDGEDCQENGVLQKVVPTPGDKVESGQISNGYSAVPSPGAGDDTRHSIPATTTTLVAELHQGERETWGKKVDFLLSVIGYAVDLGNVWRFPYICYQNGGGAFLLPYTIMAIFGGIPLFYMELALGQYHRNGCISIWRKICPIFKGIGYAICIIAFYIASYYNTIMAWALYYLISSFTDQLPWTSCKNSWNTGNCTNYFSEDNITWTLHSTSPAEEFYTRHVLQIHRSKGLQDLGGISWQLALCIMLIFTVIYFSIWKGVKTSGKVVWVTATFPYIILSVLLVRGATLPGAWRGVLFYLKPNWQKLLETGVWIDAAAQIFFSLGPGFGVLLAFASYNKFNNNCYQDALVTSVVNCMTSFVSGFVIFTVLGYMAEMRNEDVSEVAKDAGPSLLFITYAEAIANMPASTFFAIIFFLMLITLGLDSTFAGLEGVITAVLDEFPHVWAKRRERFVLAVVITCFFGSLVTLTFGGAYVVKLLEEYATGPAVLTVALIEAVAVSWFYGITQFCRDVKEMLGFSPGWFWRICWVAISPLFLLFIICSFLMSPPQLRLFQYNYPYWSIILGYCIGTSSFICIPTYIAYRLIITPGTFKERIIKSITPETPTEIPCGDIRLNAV

IC50: 14 nM
Structure (SMILES): N[C@H]1CC[C@H](c2ccc(Cl)c(Cl)c2)c2ccccc21

Reference: ChEMBL document CHEMBL4219032, “Triple Reuptake Inhibitors as Potential Therapeutics for Depression and Other Disorders: Design Paradigm and Developmental Challenges” (J Med Chem, 2018)
